Test results: US20060094783A1 (Tava Pharmaceutical Industries, Ltd., priority 1990, published 2006)

What was measured:
[1] = tested on: α-MpT-induced hypokinesia in rats; experiment: Reversal of α-MpT-induced hypokinesia in rats; type: in vivo, rat; settings: 5 mg/kg i.p., vs saline control
mice [2] = experiment: Rotorod ataxia test (acute neurotoxicity); settings: 300 mg/kg
mice [3] = settings: mouse, in vivo, 300 mg/kg

With `C#CCNC1CCc2ccccc21` (racemic) [Rac PAI Mesylate] the “% of control” value [1] was 69%.
In the case of `C#CCN[C@@H]1CCc2ccccc21.CS(=O)(=O)O` [(R)-PAI Mesylate, R-(+)-N-propargyl-1-aminoindan mesylate], the acute neurotoxicity (mice [2]) is reported as “did not show any neurotoxicity”.
In the case of `C#CCN[C@H]1CCc2ccccc21` [(S)-PAI Mesylate], the acute neurotoxicity (mice [3]) is reported as “four out of four”.

Where a name gives a salt, the structure may show the parent alone. Read-outs that look alike come from different tables or passages of the source.
